Experimental data published in US10266537B2, “3-acetylenyl-pyrazole-pyrimidine derivative, and preparation method therefor and uses thereof” (Si Chuan University, priority 2015, dated 2019).

The chains behind the UniProt entries cited, without tags or fusion partners. Where a name states a change or a piece, a line headed by the entry shows the natural chain unless it says otherwise.
UniProt P12931: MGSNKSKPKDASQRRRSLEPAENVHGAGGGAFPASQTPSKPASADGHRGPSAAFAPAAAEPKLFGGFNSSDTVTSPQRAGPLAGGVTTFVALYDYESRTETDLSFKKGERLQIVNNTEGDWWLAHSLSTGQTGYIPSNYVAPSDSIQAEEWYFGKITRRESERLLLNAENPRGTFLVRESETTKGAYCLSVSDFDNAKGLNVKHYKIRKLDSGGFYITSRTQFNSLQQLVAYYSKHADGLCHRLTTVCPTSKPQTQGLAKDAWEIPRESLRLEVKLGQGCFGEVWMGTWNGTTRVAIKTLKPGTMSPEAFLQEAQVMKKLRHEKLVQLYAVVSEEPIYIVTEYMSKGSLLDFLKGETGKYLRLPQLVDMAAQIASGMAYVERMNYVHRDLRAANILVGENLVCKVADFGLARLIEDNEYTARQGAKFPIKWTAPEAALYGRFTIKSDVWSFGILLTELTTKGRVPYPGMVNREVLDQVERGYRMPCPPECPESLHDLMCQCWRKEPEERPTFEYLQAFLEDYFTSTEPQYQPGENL

Target: c-Src(1-530) (Homo sapiens (Human), UniProt P12931)
Assay: Kinase inhibition assay (KinaseProfiler, 33P-ATP)
Conditions: ATP at Km

Row | SMILES | IC50
1 | Cc1ccc(C(=O)Nc2ccc(CN3CCN(C)CC3)c(C(F)(F)F)c2)cc1C#Cc1nn([C@@H]2CCOC2)c2ncnc(N)c12 [Compound 20] | 7 nM
2 | Cc1ccc(C(=O)Nc2ccc(CN3CCN(C)CC3)c(C(F)(F)F)c2)cc1C#Cc1nn([C@H]2CCOC2)c2ncnc(N)c12 [Compound 21] | 7 nM
